Values of other authors, collected in PMC4250310 (Bioorganic & medicinal chemistry letters, 2014).

System: ALS
Settings: ALS patients; cited from earlier work

Q: For `Nc1nc2ccc(OC(F)(F)F)cc2s1` [Riluzole], which “extension of median survival” value is on record?
A: 2–3 months
